Consider 18 compounds from ChEMBL document CHEMBL2021856 (ACS Med Chem Lett, 2011).

Protein sequences, listed by entry. Tags and fused reporters are not part of them. Lines headed by an entry give the natural chain unless they say otherwise; changes in a name come on top.
UniProt P28335: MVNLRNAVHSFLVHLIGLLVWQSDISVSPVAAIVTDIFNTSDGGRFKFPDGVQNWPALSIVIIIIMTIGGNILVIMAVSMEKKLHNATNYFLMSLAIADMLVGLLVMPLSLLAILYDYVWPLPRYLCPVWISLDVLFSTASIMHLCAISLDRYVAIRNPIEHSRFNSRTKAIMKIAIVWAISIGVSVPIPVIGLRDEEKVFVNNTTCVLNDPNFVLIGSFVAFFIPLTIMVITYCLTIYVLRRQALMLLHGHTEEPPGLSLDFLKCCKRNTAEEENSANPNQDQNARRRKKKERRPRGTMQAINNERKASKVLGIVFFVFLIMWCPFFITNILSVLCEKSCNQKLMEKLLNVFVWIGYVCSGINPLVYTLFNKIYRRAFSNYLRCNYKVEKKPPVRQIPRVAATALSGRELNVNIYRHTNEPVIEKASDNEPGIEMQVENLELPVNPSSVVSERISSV
UniProt P28223, whole entry: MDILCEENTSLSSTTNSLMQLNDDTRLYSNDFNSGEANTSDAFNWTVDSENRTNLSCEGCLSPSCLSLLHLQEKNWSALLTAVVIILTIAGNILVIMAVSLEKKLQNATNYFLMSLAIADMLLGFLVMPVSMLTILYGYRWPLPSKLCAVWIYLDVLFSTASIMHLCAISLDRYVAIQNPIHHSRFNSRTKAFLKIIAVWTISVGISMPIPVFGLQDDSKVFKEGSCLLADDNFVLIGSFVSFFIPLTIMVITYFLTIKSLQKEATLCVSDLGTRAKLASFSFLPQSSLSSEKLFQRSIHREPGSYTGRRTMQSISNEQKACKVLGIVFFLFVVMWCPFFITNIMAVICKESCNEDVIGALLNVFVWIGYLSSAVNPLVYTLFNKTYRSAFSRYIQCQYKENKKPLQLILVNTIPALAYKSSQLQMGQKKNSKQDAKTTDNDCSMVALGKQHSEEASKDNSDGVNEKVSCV
UniProt P41595, whole entry: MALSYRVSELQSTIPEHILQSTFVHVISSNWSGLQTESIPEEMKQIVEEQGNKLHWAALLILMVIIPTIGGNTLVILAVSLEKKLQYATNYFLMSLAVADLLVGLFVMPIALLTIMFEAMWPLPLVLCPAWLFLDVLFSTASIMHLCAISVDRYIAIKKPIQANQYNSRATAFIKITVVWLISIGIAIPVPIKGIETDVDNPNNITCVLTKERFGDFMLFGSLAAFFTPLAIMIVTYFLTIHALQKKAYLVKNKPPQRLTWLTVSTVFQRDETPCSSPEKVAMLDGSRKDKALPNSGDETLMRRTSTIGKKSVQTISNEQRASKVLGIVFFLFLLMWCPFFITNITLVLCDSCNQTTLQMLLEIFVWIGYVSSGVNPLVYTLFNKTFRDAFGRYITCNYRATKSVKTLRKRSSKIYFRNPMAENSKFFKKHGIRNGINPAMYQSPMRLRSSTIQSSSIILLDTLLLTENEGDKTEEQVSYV

Holding throughout (type): functional, cell-based
The target in assay [1] is 5-hydroxytryptamine receptor 2C (Homo sapiens, UniProt P28335). The assay is described as follows: Agonist activity at human 5HT2C receptor expressed in HEK293 cells assessed as calcium flux measured every sec for 3 mins by FLIPR assay relative to 5HT. In outline:
(§1)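 Calcium flux (Gαq-mediated) in HEK-293 cells stably expressing human 5-HT2A, 5-HT2B or 5-HT2C (INI isoform). […] Racemic trans mixtures were tested unless otherwise stated.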
Background: A change in cytosolic calcium serves as a functional read-out for many receptors and channels.

For assay [2], the target named is 5-hydroxytryptamine receptor 2A (Homo sapiens, UniProt P28223). The assay is described as follows: Agonist activity at human 5HT2A receptor expressed in HEK293 cells assessed as calcium flux measured every sec for 3 mins by FLIPR assay relative to 5HT. In outline: as §1
In assay [3] the target is 5-hydroxytryptamine receptor 2B (Homo sapiens, UniProt P41595). The assay is described as follows: Agonist activity at human 5HT2B receptor expressed in HEK293 cells assessed as calcium flux measured every sec for 3 mins by FLIPR assay relative to 5HT. In outline: as §1

Molecules are shown by their SMILES.

One may read the Emax as the maximal effect, on the per cent scale that the assay sets. As for `CCCCCOc1ccccc1[C@H]1C[C@@H]1CN.Cl` (racemic), the Emax in assay [1] was found to be 6%; in assay [2], 7%; in assay [3] it was 3%.
In the case of `Cc1ccc(OCC(C)C)c([C@H]2C[C@@H]2CN)c1.Cl` (racemic), the Emax in assay [1] was 24%; in assay [2], 3%; in assay [3] it was 2%.
In the case of `NC[C@H]1C[C@@H]1c1ccccc1OCC1CC1` (racemic), the figures for the Emax in assay [2] and in assay [3] were 0% and 2%, respectively.
The matching figures for `COc1ccc(-c2cccc(F)c2)cc1[C@H]1C[C@@H]1CN.Cl` (racemic): 18% and 2%.
Consider `CCCOc1ccccc1[C@H]1C[C@@H]1CN.Cl` (racemic), for which the Emax in assay [2] stood at 1%.
With `COc1ccc(-c2cccc(C)c2)cc1[C@H]1C[C@@H]1CN.Cl` (racemic), the results for the Emax in assay [2] and in assay [3] were 16% and 1%, respectively.
Take `CCCCc1ccc(-c2ccc(OC)c([C@H]3C[C@@H]3CN)c2)cc1.Cl` (racemic): the Emax in assay [1] amounted to 22%; in assay [2], 15%; in assay [3] it was 1%.
Consider `COc1ccc(-c2ccc(C)cc2)cc1[C@H]1C[C@@H]1CN.Cl` (racemic), for which the results for the Emax in assay [1], in assay [2] and in assay [3] were 19%, 20% and 1%, respectively.
For `COc1ccc(-c2ccccc2C)cc1[C@H]1C[C@@H]1CN.Cl` (racemic), the Emax worked out at 23% in assay [2] and 2% in assay [3].
In the same order, the values of `NC[C@H]1C[C@@H]1c1ccccc1OCC1CC1` are 1% and 1%.
For the compound `COc1ccc(-c2ccccc2)cc1[C@H]1C[C@@H]1CN.Cl` (racemic), the Emax was 18% in assay [2] and 2% in assay [3].
Regarding `Cl.NC[C@@H]1C[C@H]1c1ccccc1OCC1CC1`, the Emax in assay [2] turned out to be 0%; in assay [3], 4%.
As for `Cl.NC[C@H]1C[C@@H]1c1ccccc1OCC1CCC1` (racemic), the values for the Emax in assay [2] and in assay [3] were 1% and 3%, respectively.
The matching figures for `COc1ccc(-c2ccc(F)cc2)cc1[C@H]1C[C@@H]1CN.Cl` (racemic): 20% and 8%.
As to `COc1ccc(-c2ccccc2F)cc1[C@H]1C[C@@H]1CN.Cl` (racemic), the Emax in assay [2] is 21%; in assay [3] it was 1%.
For `Cl.NC[C@H]1C[C@@H]1c1ccccc1OCC1CCCCC1` (racemic), the Emax in assay [1] came out at 1%; in assay [2], 0%; in assay [3] it was 1%.
Consider `CC(C)COc1ccccc1[C@H]1C[C@@H]1CN.Cl` (racemic), for which the Emax was 1% in assay [2] and 0% in assay [3].
As to `Cl.NC[C@H]1C[C@@H]1c1ccccc1OCc1ccccc1` (racemic), the maximum response (Emax) in assay [2] worked out at 0%.
